# According to PubChem BioAssay (Tox21):
# The chains behind the UniProt entries cited, without tags or fusion partners. Where a name states a change or a piece, a line headed by the entry shows the natural chain unless it says otherwise.
# UniProt Q12809: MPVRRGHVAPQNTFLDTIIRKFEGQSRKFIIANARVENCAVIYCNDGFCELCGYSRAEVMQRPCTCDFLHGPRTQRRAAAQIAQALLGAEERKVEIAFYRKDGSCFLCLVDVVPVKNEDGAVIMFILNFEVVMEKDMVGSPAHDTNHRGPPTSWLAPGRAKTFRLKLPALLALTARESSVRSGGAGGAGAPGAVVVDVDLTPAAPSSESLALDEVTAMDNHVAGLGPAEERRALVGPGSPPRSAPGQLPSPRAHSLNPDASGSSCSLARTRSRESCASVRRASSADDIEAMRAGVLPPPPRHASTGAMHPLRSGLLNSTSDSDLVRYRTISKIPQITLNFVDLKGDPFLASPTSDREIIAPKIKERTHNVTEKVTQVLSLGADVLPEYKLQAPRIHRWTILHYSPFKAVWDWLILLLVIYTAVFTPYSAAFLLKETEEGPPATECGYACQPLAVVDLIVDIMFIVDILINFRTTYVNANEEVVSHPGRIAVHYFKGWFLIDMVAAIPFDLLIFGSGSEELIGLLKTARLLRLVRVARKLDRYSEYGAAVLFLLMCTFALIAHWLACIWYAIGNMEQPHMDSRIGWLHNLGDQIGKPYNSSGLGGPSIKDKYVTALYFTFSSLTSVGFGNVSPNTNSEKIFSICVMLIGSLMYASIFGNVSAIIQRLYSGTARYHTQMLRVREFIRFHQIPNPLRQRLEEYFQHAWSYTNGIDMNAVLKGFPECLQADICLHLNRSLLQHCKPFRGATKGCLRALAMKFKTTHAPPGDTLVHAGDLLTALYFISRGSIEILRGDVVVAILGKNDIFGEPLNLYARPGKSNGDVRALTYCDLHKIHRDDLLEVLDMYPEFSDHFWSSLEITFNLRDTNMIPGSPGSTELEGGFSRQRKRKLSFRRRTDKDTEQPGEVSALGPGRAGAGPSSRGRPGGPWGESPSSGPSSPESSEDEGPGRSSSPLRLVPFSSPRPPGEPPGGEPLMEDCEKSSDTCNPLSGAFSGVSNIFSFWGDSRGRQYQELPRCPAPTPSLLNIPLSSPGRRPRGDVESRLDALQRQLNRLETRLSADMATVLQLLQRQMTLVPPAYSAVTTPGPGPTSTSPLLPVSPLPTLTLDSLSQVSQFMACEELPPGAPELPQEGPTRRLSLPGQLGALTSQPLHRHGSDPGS
# UniProt P03372, whole entry, looked up: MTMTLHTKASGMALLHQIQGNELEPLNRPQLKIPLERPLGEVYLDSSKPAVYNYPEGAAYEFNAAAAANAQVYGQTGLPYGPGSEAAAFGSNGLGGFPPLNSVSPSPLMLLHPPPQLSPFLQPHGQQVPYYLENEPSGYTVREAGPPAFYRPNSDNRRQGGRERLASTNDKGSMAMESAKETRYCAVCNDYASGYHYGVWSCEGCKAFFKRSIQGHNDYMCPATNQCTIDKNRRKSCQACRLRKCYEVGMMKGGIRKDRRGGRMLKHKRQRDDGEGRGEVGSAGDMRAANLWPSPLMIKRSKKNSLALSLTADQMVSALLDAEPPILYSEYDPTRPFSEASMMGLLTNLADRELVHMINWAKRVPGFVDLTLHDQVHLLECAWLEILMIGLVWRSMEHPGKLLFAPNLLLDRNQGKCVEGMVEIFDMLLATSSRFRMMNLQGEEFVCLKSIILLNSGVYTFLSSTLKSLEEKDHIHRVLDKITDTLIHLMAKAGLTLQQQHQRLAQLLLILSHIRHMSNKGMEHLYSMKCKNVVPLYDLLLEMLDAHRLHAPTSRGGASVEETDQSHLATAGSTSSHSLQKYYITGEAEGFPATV
# UniProt P22303: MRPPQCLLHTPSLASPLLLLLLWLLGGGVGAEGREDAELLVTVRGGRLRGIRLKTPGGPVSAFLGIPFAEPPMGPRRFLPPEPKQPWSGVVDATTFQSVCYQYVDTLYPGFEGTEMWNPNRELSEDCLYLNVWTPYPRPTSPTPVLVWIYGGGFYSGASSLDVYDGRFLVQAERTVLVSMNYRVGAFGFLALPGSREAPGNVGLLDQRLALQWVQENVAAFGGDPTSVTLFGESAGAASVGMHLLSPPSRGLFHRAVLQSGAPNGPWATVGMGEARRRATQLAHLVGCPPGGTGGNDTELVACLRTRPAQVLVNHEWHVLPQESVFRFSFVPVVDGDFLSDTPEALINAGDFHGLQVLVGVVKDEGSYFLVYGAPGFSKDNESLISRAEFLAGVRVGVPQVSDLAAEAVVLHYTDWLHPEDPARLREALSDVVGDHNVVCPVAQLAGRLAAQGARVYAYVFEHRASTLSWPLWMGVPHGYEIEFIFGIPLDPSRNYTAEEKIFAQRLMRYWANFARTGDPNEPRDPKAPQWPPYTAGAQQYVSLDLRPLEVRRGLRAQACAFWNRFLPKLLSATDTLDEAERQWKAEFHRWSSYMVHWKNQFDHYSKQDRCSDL
# Several values for one entry are separate records, joined by “and”; a condition that tells them apart may be missing. A call without a number means that no potency is given here. Equal values may be shown once. For part of these data: Shown are results outside the selection of hits, which stands elsewhere. Inconclusive results are not listed. A structure can be active in one record and inactive in another. Only a part is listed here, and it is no random draw. Activity calls are given as the source filed them. Unless noted, calls follow the shape of the dose curve; as a rule, active = well fitted curve in the direction sought with a large enough effect in the repeat runs; inconclusive = weak or mixed curves; inactive = no such curve, though single readings can be large; an effect the other way counts as inactive or inconclusive.
# Columns and labels:
# [1] = target: Nuclear receptor subfamily 1 group I member 2 (Homo sapiens) (UniProt O75469); assay: Human pregnane X receptor (PXR) small molecule agonists, qHTS assay (AID 1346982); also: nearly all actives have a fitted effect of over 35% in size; also: potency is read from the fitted curve at half-maximal effect
# In short: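 Cells: HepG2 stably carrying PXR-Luc. Medium held 5% charcoal-stripped FBS. Compounds in DMSO added after 5 hr plating, incubated 24 hr, then luminescence quantified with ONE-Glo.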
# [2] = target: Nuclear receptor subfamily 1 group I member 2 (Homo sapiens) (UniProt O75469); assay: CYP3A4 induction through human pregnane X receptor (PXR) by small molecules, qHTS assay (AID 1346984); also: nearly all actives have a fitted effect of over 40% in size; also: potency is read from the fitted curve at half-maximal effect
# In short: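 Quantitative HTS in DPX-2 cells, i.e. HepG2 transfected with PXR response element and CYP3A4-promoter luciferase. Compounds in DMSO incubated 24hr at 37C; then P450-Glo CYP3A4 substrate, 3uM final, 3hr; One-Glo luminescence.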
# [3] = target: Nuclear receptor subfamily 1 group I member 2 (Homo sapiens) (UniProt O75469); assay: Human pregnane X receptor (PXR) activation by small molecules, qHTS assay (AID 1346985); also: nearly all actives have a fitted effect of over 40% in size; also: potency is read from the fitted curve at half-maximal effect
# [4] = target: Voltage-gated inwardly rectifying potassium channel KCNH2 (Homo sapiens) (UniProt Q12809); assay: Human Ether-a-go-go-Related Gene (hERG) channel small molecule antagonists: fluorescence cell-based qHTS assay (AID 1671200); details: hERG-U2OS cells, FluxOR thallium flux fluorescence; also: potency is read from the fitted curve at half-maximal effect; nearly all actives have a fitted effect of over 50% in size
# In short: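 Measured: Tl+ flux via fluorescence (480/540 nm) in hERG-expressing U2OS cells after 1 h dye loading at room temperature.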
# [5] = target: Estrogen receptor (Homo sapiens) (UniProt P03372); assay: qHTS assay to identify small molecule agonists of the estrogen receptor alpha (ER-alpha) signaling pathway (AID 743075; calls by dose curve;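 also: HEK293 GripTite cells with ER-alpha and UAS-driven beta-lactamase reporter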)
# [6] = target: Acetylcholinesterase (Homo sapiens) (UniProt P22303); assay: Acetylcholinesterase (AChE) small molecule antagonists: enzyme-based qHTS assay (AID 1347397; calls by dose curve; also: potency is read from the fitted curve at half-maximal effect; nearly all actives have a fitted effect of over 55% in size); details: Potency: AChE enzyme activity inhibition
# In short: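 Compound or DMSO vehicle was pin-transferred onto recombinant human AChE (50 mU/mL as dispensed) and left 30 min at room temperature. Acetylthiocholine with DTNB then started the reaction, read colorimetrically 10 min later.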
# [7] = target: Acetylcholinesterase (Homo sapiens) (UniProt P22303); assay: Acetylcholinesterase (AChE) small molecule antagonists: fluorescence cell-based qHTS assay (AID 1347398; calls by dose curve; also: potency is read from the fitted curve at half-maximal effect; nearly all actives have a fitted effect of over 50% in size); details: Potency: AChE activity
# In short: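 Using neuroblastoma SH-SY5Y cells as the enzyme source, test chemicals are preincubated 30 min at 37 C; AChE-driven acetylthiocholine cleavage is then quantified by thiocholine-dependent Thiolite Green fluorescence after 40 min at room temperature.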
# [8] = target: Acetylcholinesterase (Homo sapiens) (UniProt P22303); assay: Acetylcholinesterase (AChE) small molecule antagonists: enzyme-based qHTS assay with human liver microsomes (AID 1347399; calls by dose curve; also: potency is read from the fitted curve at half-maximal effect; nearly all actives have a fitted effect of over 60% in size); details: Potency: qHTS inhibition
# In short: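 Recombinant human AChE (50 mU/mL in the enzyme mix) and human liver microsomes (0.25 mg/mL final) were preincubated with compound and NADPH (0.25 mg/mL final) for 30 min at 37 C. Acetylthiocholine/DTNB was then added; thiocholine was read colorimetrically after 10 min at room temperature.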
structure (smiles),measurement,setting,value
O=C(O)CC(O)(CC(=O)O)C(=O)O,Potency,[1],inactive
COC(=O)[C@@H](N)CCCN/C(N)=N/[N+](=O)[O-],Potency,[1],inactive
same,Potency,[2],inactive
same,Potency,[3],inactive
Oc1cccc2cccnc12,Potency,[1],active: 1.3 µM and active: 770 nM and inactive
same,Potency,[2],active: 4.47 µM
same,Potency,[3],inactive
Cn1cc(C2=C(c3cn(C4CCN(Cc5ccccn5)CC4)c4ccccc34)C(=O)NC2=O)c2ccccc21,Potency,[4],active: 1.69 µM
N#CS,Potency,[1],inactive
Clc1ccc(C(Cn2ccnc2)OCc2csc3c(Cl)cccc23)c(Cl)c1 (stereo not given),Potency,[5],inactive
O=C(CCC1CCN(Cc2ccccc2)CC1)c1ccc2c(c1)NCCCC2,Potency,[6],active: 1.74 µM
same,Potency,[7],active: 0.617 µM
same,Potency,[8],active: 3.09 µM
CC(=O)O.CC(=O)O.CC(=O)O.CC(=O)O.CC(=O)O.CC(=O)O.CC(=O)O.O.O.[Cr].[Cr].[Cr],Potency,[1],inactive
CC(=O)[O-].CC(=O)[O-].CC(=O)[O-].[Sb+3],activation,[1],inactive: 1.64% [at 3.27 µM]
CC(NC(C)(C)C)C(=O)c1cccc(Cl)c1 (stereo not given),Potency,[1],inactive
same,Potency,[2],inactive
same,Potency,[3],inactive
COc1cc(-c2ccc(N)c(OC)c2)ccc1N,Potency,[1],active: 61.1 µM [middle of 4 runs]
COc1ccc2c3c1O[C@H]1[C@H](O)CC[C@H]4[C@@H](C2)N(C)CC[C@@]341,Potency,[1],inactive
C=CCN1CC[C@]23CCCC[C@H]2[C@H]1Cc1ccc(O)cc13,Potency,[1],inactive
same,Potency,[2],inactive
same,Potency,[3],inactive
CC(C)N(CCC(C(N)=O)(c1ccccc1)c1ccccn1)C(C)C (stereo not given),Potency,[1],inactive
CC(=O)[O-].CC(=O)[O-].O.O.[Zn+2],Potency,[1],inactive
O=[N+]([O-])O,Potency,[1],inactive
N[C@@H](Cc1ccc(N(CCCl)CCCl)cc1)C(=O)O,Potency,[1],inactive
same,Potency,[3],active: 25.1 µM
N#CC(Br)(Br)C(N)=O,Potency,[1],inactive
NC(=O)CN1CCCC1=O,Potency,[1],inactive
